Laboratory results published in patent publication US7569541B2 (priority 2003, dated 2009).

Conditions: compared with isomeric counterpart BP66

Substance: Asn-Pro-Asn-Ala-Asn-(Apro-Asn-Ala-Asn-Pro-Asn-Ala-Asn-Pro-Asn-Glu)cyclo-Asn-Pro-Asn-Ala attached to a PE moiety [UK39]
- Proneness to degradation in aqueous solution: less prone to be degraded in aqueous solution than its isomeric counterpart BP66
